This note sets out measurements from patent publication US20230390416A1, “COMPOSITIONS FOR INDUCING TUMOR IMMUNITY AND REDUCING DRUG TOLERANCE” (The Brigham and Women's Hospital, Inc., priority 2020, published 2023).

The subject of one assay is Hsp90. Particulars: DTCCs; confocal microscopy and western blot. In general terms: In western blotting, separated proteins are transferred to a membrane and probed.
The test system of the next assay is MDA-MB-468 DTCCs. Put plainly: MICA/B expression by flow cytometry in DTCCs under Hsp90 inhibitors. The class given is cell-based, human. Particulars: % MICA/B positively expressing cells, vehicle 54.7 ± 3.9. How it is done: (§1) Two schedules of drugs in combination were administered to the indicated TNBC parental cell lines (A). […] Plots generated using constant ratio drug combination. […] N=11 in biological replicate. • (D) Quantification of MICA/B mean fluorescence, corrected for background by negative control. […] N≥4 in biological replicate. • (I) In vitro drug synergy was determined using the Chau-Talalay method. Two schedules of drugs in combination were administered to the indicated TNBC parental cell lines (A). […] Plots generated using constant ratio drug combination. Values falling below 1.0 combination index=synergy. • (J) In silico prediction model of drug schedule on signaling pathways. […] The first drug was administered at the beginning of the experiment (t=0), followed by the second drug after 48 h (t=48). […] GAPDH loading control.
(§2) Human MDA-MB-231, MDA-MB-468, MDA-MB-436, MCF-7, mammary carcinoma 4T-1 cells (ATCC) and SUM159 (Bioivt) were purchased in the last 10 years and cultured in 10% fetal bovine serum in DMEM or RPMI media (Invitrogen, Carlsbad CA, USA). Cell lines were validated for absence of mycoplasma prior to use, by the sourcing agency. Cells were used within 10 passages from frozen stock vials obtained from the sourcing agency.
Background: Flow cytometry measures light scatter and fluorescence of single cells or particles in a stream.

A further assay has as its system SUM 159 DTCCs. The assay is described as above. The class given is cell-based, human. Particulars: % MICA/B positively expressing cells, vehicle 30.6 ± 0.9. The procedure: as §1, §2
Another assay concerns MDA-MB-231 DTCCs. The description is as above. Particulars: % MICA/B positively expressing cells, overnight (radicicol 5 μM, FIG. 3C), vehicle 76.2 ± 1.1. It is filed as cell-based, human. The procedure:
as §1, §2

Turning to `C[C@@H]1C[C@H]2O[C@@H]2/C=C\C=C\C(=O)Cc2c(Cl)c(O)cc(O)c2C(=O)O1` [Radicicol, radicicol], the “cytoplasmic sequestration of HSF-1 Ser326 and activation of pro-survival proteins” value in the assay on Hsp90 is “reversed cytoplasmic sequestration of HSF-1^Ser326 and activation of pro-survival proteins”. The “MICA (%) ± SEM” value was 96.8 ± 1.8% with MDA-MB-468 DTCCs, 74.8 ± 0.5% with SUM 159 DTCCs and 93.2 ± 0.9% with MDA-MB-231 DTCCs.
